Results: patent publication US20240269308A1, “PRODRUGS OF TOPOISOMERASE I INHIBITOR FOR ADC CONJUGATIONS AND METHODS OF USE THEREOF” (priority 2022, published 2024)

Legend:
Calu-3 = assay: anti-Her2 viability assay, Calu-3 cells (target positive); type: cell-based; conditions: Calu-3 target positive cells, 6 days
Procedure: (§1) The anti-Her2 viability assay protocol is following.
(§2) 0.1% BSA was added to the Opti-MEM reduced serum media [Gibco, cat #31985-070]. This assay media was used for the dilution of ADC and free drug.
(§3) Cells were seeded in their growth media into 96 well plates (Thermo #136101) one day prior to adding ADCs: 1000/well SKBR3 cells in 80 uL media (target positive cells), 1000/well NCI-N87 cells in 80 uL media (target positive cells), 1000/well Calu-3 in 80 uL media (target positive cells), and 800/well NCI-H1975 cells in 80ul media (target negative cells).
(§4) Serial dilutions of free drug in 100% DMSO (1:4 10 pts starting from 100 uM) were prepared. Serially diluted payload was transferred into Opti-Mem with 0.1% BSA (10 uL into 990 uL media). Serial dilutions of ADCs/isotype controls at 1:4 in Opti-Mem with 0.1% BSA (starting from 5×1000 nM) were prepared. 20ul assay media diluted ADC/isotype conjugates as well as free drug were transferred to above cells. The plates were incubated at 37° C., 5% CO2 for 6 days. Plates were developed by adding 100ul CellTiter Glo 2.0. RT 5-10 min. Plates were read with Envision plate reader. Data was analyzed using Prism. Only inner 60 well are used for the assay. The edge wells were filled with media to prevent dry out.

NCI-H1975 cells = assay: anti-Her2 viability assay, NCI-H1975 cells (target negative); type: cell-based; conditions: 6 days
Procedure: as §1, §2, §3, §4

JIMT-1 = assay: in vitro cell killing activity, JIMT-1 cells (CellTiter Glo viability); type: cell-based
Procedure: as §4

SK-BR-3 cells = assay: SKBR3 cell-based anti-proliferation / viability assay (CellTiter-Glo); parameters: species or system human; conditions: SKBR3 target positive cells, 6 days
Procedure: as §1, §2, §3
Serial dilutions of free drug in 100% DMSO (1:4 10 pts starting from 100 uM) were prepared. Serially diluted payload was transferred into Opti-Mem with 0.1% BSA (10 uL into 990 uL media). Serial dilutions of ADCs/isotype controls at 1:4 in Opti-Mem with 0.1% BSA (starting from 5×1000 nM) were prepared. […] Plates were read with Envision plate reader. Data was analyzed using Prism. […]
The cell line used in the anti-proliferation assays was SK-BR-3, a human breast, adenocarcinoma (pleural effusion) cell line; The cells were grown in McCoy's 5a Medium+10% FBS. […] After the plates were shaken for 10 min and then incubated for 10 min at room temperature, paste the clear bottom with white back seal and record luminescence with Envision. The inhibition % was calculated according to the following equation: inhibition %=[1-(assay-blank)/(control-blank)]×100.

NCI-N87 cells = assay: anti-Her2 viability assay, NCI-N87 cells (target positive); type: cell-based; conditions: 6 days
Procedure: as §1, §2, §3, §4

| Molecule | Calu-3 % Kill (Calu-3) [%] | pIC50 (Calu-3) | H1975 % Kill (NCI-H1975 cells) [%] | pIC50 (NCI-H1975 cells) | pIC50 (JIMT-1) | JIMT-1 % Kill (JIMT-1) [%] | SKBR3 % Kill (SK-BR-3 cells) [%] | pIC50 (SK-BR-3 cells; CellTiter Glo) | pIC50 (NCI-N87 cells) | N87 % Kill (NCI-N87 cells) [%] |
| --- | --- | --- | --- | --- | --- | --- | --- | --- | --- | --- |
| Cont. DS8201a | 87.9 | 6.80 | 51.6 | 6.16 | < 6.40 | 44.7 | 88.0 | 7.02 | 6.77 | 83.4 |
| CC[C@@]1(O)C(=O)OCc2c1cc1n(c2=O)Cc2c-1nc1cc(F)c(C)c3c1c2[C@@H](NC(=O)CO)CC3 [Dxd, reference compound] | – | – | – | – | – | – | – | – | – | 98.6 |
| CC[C@@]1(O)C(=O)OCc2c1cc1n(c2=O)Cc2c-1nc1cc(F)c(C)c3c1c2[C@@H](NC(=O)COCNC(=O)[C@@H](N)Cc1ccccc1)CC3 [P7, (2S)-2-amino-N-[({[(10S,23S)-10-ethyl-18-fluoro-10-hydroxy-19-methyl-5,9-dioxo-8-oxa-4,15-diazahexacyclo[14.7.1.0^2,14.0^4,13.0^6,11.0^20,24]tetracosa-1,6(11),12,14,16,18,20(24)-heptaen-23-yl]carbamoyl}methoxy)methyl]-3-phenylpropanamide] | – | – | – | – | – | – | – | – | – | 98.6 |

pIC50: −log10 of the molar value.
